Results taken from US12709645B2, “Targeting gene amplification in cancer using triplex formation as a therapeutic strategy” (Yale University, priority 2018, dated 2026).

Tested on: BT474 human breast cancer tumors
Experiment: BT474 breast cancer subcutaneous xenograft model
Assay type: in vivo, athymic nude mice
Procedure: Six to seven-week old female BALB/c athymic, ovariectomized nude mice (Harlan Sprague-Dawley) were implanted with 0.72 mg, 60-day release 17β-estradiol pellets (Innovative Research). […] Mice were treated with 20 mg/kg body weight of MIX24, HER2-205 or trastuzumab in PBS by intraperitoneal (IP) injection (3 doses evenly administered over 7 days). Tumor volumes in each group were then monitored and mice were sacrificed when tumor volumes reached 1000 mm^3. Error bars represent standard error of the mean. Tumor tripling time was calculated as the time required for tumors to increase in volume […] over baseline (defined as tumor volume before administration of dose on first day of treatment). Harvested tumors were fixed in 10% neutral buffered formalin and processed by Yale Pathology Tissue Services for H&E, Caspase 3, HER2, and Ki67. Images were taken at 4× magnification.

Substance: trastuzumab [reference compound]
- tumor tripling time post-initial dose (20 mg/kg IP, 3 doses over 7 days): 24 ± 2.1 days
- reduction in tumor volumes compared to controls (HER2-positive breast cancer xenografts): 58%
